Where two headings read alike, the source gives them in different places.
Molecular target: PI3k δ (Homo sapiens, UniProt O00329)
Settings: read-out: PI3k δ Ki

Amino acid sequences for entries named in this document (tags omitted). A change or cut given only in a name is not applied to a line headed by its entry.
UniProt O00329, whole entry: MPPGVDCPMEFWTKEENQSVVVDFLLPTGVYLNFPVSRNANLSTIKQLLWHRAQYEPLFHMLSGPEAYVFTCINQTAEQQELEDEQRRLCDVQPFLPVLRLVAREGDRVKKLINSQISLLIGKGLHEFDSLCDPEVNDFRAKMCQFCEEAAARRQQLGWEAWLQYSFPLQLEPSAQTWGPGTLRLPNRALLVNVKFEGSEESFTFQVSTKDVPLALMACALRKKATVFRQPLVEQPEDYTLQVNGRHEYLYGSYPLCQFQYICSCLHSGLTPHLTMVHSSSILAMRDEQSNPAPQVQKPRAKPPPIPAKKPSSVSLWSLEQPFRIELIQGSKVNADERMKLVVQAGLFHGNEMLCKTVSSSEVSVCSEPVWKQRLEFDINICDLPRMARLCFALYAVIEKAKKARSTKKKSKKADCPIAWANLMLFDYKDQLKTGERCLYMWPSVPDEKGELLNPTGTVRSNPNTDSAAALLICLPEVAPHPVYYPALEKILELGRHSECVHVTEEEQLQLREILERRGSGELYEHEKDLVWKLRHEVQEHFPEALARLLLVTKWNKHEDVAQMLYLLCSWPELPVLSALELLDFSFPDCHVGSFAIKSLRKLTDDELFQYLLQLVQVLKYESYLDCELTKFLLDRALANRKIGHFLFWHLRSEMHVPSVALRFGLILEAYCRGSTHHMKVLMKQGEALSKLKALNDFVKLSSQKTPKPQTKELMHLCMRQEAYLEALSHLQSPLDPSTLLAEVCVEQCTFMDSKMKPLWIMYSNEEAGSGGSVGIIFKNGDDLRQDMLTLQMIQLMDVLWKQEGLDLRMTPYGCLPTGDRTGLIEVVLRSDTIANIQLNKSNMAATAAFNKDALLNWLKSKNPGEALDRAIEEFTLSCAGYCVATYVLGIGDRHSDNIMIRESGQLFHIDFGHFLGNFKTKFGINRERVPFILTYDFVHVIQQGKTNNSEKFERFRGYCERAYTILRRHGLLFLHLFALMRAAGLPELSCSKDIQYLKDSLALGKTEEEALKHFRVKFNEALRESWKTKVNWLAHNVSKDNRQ
UniProt P27986, whole entry partner: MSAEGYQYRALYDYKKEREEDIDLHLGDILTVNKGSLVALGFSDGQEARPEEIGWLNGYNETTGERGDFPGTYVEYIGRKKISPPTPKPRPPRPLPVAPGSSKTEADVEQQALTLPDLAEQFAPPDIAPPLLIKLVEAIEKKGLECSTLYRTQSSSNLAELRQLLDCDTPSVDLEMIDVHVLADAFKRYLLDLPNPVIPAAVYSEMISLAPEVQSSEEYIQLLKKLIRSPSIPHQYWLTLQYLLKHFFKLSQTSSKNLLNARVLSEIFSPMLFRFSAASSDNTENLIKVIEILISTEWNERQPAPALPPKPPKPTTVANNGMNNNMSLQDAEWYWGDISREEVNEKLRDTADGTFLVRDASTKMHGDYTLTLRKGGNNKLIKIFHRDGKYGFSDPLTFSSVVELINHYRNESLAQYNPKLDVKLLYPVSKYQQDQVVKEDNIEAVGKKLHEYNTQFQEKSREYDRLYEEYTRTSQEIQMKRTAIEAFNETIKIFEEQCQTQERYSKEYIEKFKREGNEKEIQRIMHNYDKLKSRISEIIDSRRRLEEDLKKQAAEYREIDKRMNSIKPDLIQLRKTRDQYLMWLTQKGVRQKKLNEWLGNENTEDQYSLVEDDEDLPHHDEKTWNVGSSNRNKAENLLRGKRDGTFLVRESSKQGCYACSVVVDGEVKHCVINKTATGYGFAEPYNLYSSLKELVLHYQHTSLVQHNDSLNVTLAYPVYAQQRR

| SMILES | Ki [µM] | Ki (tested form: racemic mixture of the (1R) and (1S) ena) [µM] |
| --- | --- | --- |
| CC(Nc1ncnc(N)c1C#N)c1nc2ncccc2n1-c1cc(F)cc(F)c1 (centres unmarked) | 0.344 | – |
| CC(Nc1ncnc(N)c1C#N)c1nc2cnccc2n1-c1cc(F)cc(F)c1 (centres unmarked) | – | 11.1 |

— patent US8575183B2, “Heterocyclic compounds and their uses” (priority 2010, dated 2013)
